Legend:
SHP2/K364S = SHP2/K364S (Homo sapiens (Human), UniProt Q06124, K364S)
SHP2/R362A = SHP2/R362A (Homo sapiens (Human), UniProt Q06124, R362A)

Cn1c(-c2cccc(NC(=O)C(=O)Nc3ccc(-c4ccsc4)cc3)c2)c(I)c2cc(C(=O)O)c(O)cc21 [11a-1, 6-hydroxy-3-iodo-1-methyl-2-(3-(2-oxo-2-((4-(thiophen-3-yl)phenyl)amino)acetamido)phenyl)-1H-indole-5-carboxylic acid]
IC50 for SHP2/K364S, fold higher than that of the wild-type enzyme (SHP2/K364S): 1.3 fold
IC50 for SHP2/R362A, fold higher than that of the wild-type enzyme (SHP2/R362A): 2.2 fold

Reference: patent US9522881B2, “Hydroxyindole carboxylic acid based inhibitors for oncogenic Src homology-2 domain containing protein tyrosine phosphatase-2 (SHP2)” (Indiana University Research and Technology Corporation, priority 2013, dated 2016)
